# In the library only some 16% were active in any assay of this set; here they are far more common.
# uPA generation – cell surface uPA generation inhibition; cell surface uPA generation assay, qHTS; Potency, µM (doses to about 38.3 µM), without a hit: top-dose activity change, negative = inhibition, most hits filed as inhibitors; hit rate 0.31% among 330,000; AID 540303; active = well fitted inhibition curve with a large enough effect; inconclusive = small, poorly fitted or top-dose-only effect; inactive = no such curve, though single readings can be large or run the other way; tested in mouse RAW 264.7 cells; note: potency is the fitted concentration of half-maximal effect; % is set by controls: 0 for no effect and ±100 for the full control effect; nearly all actives have a fitted effect of over 55% in size
# DT40 TDP1 CPT – growth inhibition of DT40 Tdp1-/-;hTDP1 cells with camptothecin (screen for TDP1 inhibitors) | chicken DT40 Tdp1-/-;hTDP1 cells + 20 nM CPT, ATP luminescence, 48 h | Potency, µM (titrated, usually from 46.2 µM), without a hit: top-dose activity change, negative = growth inhibition, usual class: inhibitors | hit rate 12% among 420,000 | AID 686979; note: potency is the fitted concentration of half-maximal effect; % is set by controls: 0 for no effect and ±100 for the full control effect; nearly all actives have a fitted effect of over 55% in size
#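 Chicken DT40 Tdp1-/- cells stably complemented with human TDP1 were seeded at 400 cells/well in medium containing 20 nM camptothecin, exposed to pin-transferred compounds, and grown at 37 °C for at least 48 hr. Viability was read as ATP luminescence.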
# DT40 TDP1 no CPT – qHTS for Inhibitors of human tyrosyl-DNA phosphodiesterase 1 (TDP1): qHTS in cells in absence of CPT | Potency, µM (series often up to 46.2 µM), inactives show at the highest dose activity change, negative = growth inhibition, most hits filed as inhibitors | hit rate 15% among 420,000 | DT40 Tdp1-/- hTDP1 cells, no CPT, ATP luminescence, 48 h; note: potency is the fitted concentration of half-maximal effect; % is set by controls: 0 for no effect and ±100 for the full control effect; nearly all actives have a fitted effect of over 55% in size
#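 Cells were dispensed at 400 per well, compounds added by pin tool, plates incubated ≥48 hr at 37 °C, then CellTiter-Glo added for 30 min at room temperature before luminescence reading. Line: DT40 Tdp1-/- complemented with hTDP1; camptothecin omitted.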
# TDP1 inh – blocks human tyrosyl-DNA phosphodiesterase 1; Q9NUW8; recombinant TDP1, AlphaScreen DNA substrate cleavage; Potency, µM (doses to about 130 µM), for inactives: at the top dose activity change, negative = inhibition, hits mostly inhibitors; hit rate 0.28% among 350,000; note: potency is the fitted concentration of half-maximal effect; % is set by controls: 0 for no effect and ±100 for the full control effect; nearly all actives have a fitted effect of over 40% in size
#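 Signal: AlphaScreen proximity between streptavidin donor and anti-FITC acceptor beads on intact substrate. Reaction: Tdp1 1 nM, substrate 15 nM final, 5 min RT after 15 min compound preincubation.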
# miR-21 reporter – raises the signal of a miR-21 reporter | AID 2288 | 340,000 tested, under 10 active | Potency, µM (series often up to 38.3 µM), without a hit: at the highest dose reporter change, positive = more light | HeLa miR-21 FLuc reporter, luciferase, 48 h; active = well fitted rising curve with a large enough effect; inconclusive = small, poorly fitted or top-dose-only effect; inactive = no such curve, though single readings can be large or run the other way;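 further: % of control where 0% means no effect; miR-21 action dims this reporter so a rising signal means less miR-21 action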
#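 HeLa miR-21-FLuc reporter line, endogenous miR-21; 2000 cells/well in DMEM/10% FBS; compound titration up to ~40uM final, 48 h, 37 degree Celsius; luciferase detection reagent, 15 min lysis, CCD luminescence.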
# * hit, by the source's call; ? = inconclusive; · = not tested or not shown; [ ] = another dose, or the depositor's remark. Unless noted, calls come from the whole dose curve; as a rule, active = well fitted curve in the direction sought with a large enough effect; inconclusive = small, poorly fitted or top-dose-only effect, or another doubt; inactive = no such curve, though single readings can be large; an effect the other way counts as inactive or inconclusive.
SMILES,uPA generation,DT40 TDP1 CPT,DT40 TDP1 no CPT,TDP1 inh,miR-21 reporter
O=C(CC12CC3CC(CC(C3)C1)C2)N/N=C\c1ccc[nH]1,1%,6%,-15%,3%,6%
O=C(Cc1ccc([N+](=O)[O-])cc1)N/N=C/c1ccc([N+](=O)[O-])o1,?,10µM*,9.2µM*,3%,?
CCOC(=O)N/N=C\c1ccc([N+](=O)[O-])o1,-26%,?,22µM*,-2%,23%
CC1(C(=O)N/N=C/c2ccc([N+](=O)[O-])o2)CC1(Br)Br (stereo not drawn),-8%,13µM*,10µM*,5%,?
CCOC(=O)N/N=C\c1ccc(-c2cc(Cl)ccc2Cl)o1,-4%,?,-22%,-3%,-12%
O=C(CC12CC3CC(CC(C3)C1)C2)N/N=C/c1ccc([N+](=O)[O-])o1,-7%,9.2µM*,23µM*,-1%,-4%
CC1(C(=O)NNC(=O)c2ccc([N+](=O)[O-])cc2)CC1(Br)Br (stereo not drawn),-4%,-11%,?,2%,3%
O=C(CN1CCCCCCC1)N/N=C/c1ccc([N+](=O)[O-])o1,-12%,?,?,·,?
O=C(CSCc1nc2scc(-c3cccs3)c2c(=O)[nH]1)Nc1ccccn1,4%,-2%,7%,3%,-9%
CCCCOc1ccc(C(=O)N/N=C/c2ccc(OCCN3CCCCC3)c(OC)c2)cc1,-7%,21µM*,?,1%,-8%
CCCCOc1ccc(C(=O)NCC2(N3CCN(C)CC3)CCCCC2)cc1,·,?,18µM*,4%,-16%
CCOc1ccc(/C=N/NC(=O)c2ccncc2)cc1OC,·,1%,-8%,·,·
CC(C)COc1ccc(C(=O)CCN2CCCCC2)cc1,-10%,5.2µM*,2.9µM*,-3%,8%
CCCCOc1ccc(C(=O)CCN2CCCCC2)cc1,?,8.2µM*,6.5µM*,5%,0%
COc1ccc(C(=O)NCC2(N3CCN(C)CC3)CCCCC2)cc1,·,2%,6%,-4%,1%
Cc1cccc(NC(=O)CSc2nncn2-c2ccccn2)c1,1%,0%,1%,2%,-8%
C=CCn1c(SCC(=O)N(CC)c2c(N)n(Cc3ccccc3)c(=O)[nH]c2=O)nnc1-c1ccccc1OC,0%,-11%,22%,·,·
CCCN1C(=O)C(O)(CC(=O)c2cccc(OC)c2)c2ccccc21 (stereo not drawn),-10%,4.1µM*,3.3µM*,9%,-4%
COc1cccc(C(=O)CC2(O)C(=O)N(Cc3ccccc3)c3ccccc32)c1 (stereo not drawn),·,6.5µM*,6.5µM*,·,-1%
Nc1ncnc2c1ncn2[C@@H]1O[C@H](CNS(=O)(=O)c2ccc3c(c2)CCN(C(=O)C(F)(F)F)C3)[C@@H](O)[C@H]1O,-8%,-15%,-3%,0%[56.1 µM],·
CC(=O)c1ccc(NC(=O)Nc2ccc3snnc3c2)cc1,·,12µM*,21µM*,-3%,-1%
Cc1ccc(F)c(NC(=O)Nc2ccc3snnc3c2)c1,·,21µM*,21µM*,3%,-23%
Cc1c(Cl)cccc1NC(=O)Nc1ccc2snnc2c1,·,15µM*,18µM*,5%,?
O=C(Nc1ccc(F)cc1)Nc1ccc2snnc2c1,·,3.7µM*,6.5µM*,-3%,27%
O=C(Nc1ccc(F)cc1)c1ccc2snnc2c1,-1%,-30%,-17%,3%,-29%

# Complete entries, looked up by structure.
# Record of `C=CCn1c(SCC(=O)N(CC)c2c(N)n(Cc3ccccc3)c(=O)[nH]c2=O)nnc1-c1ccccc1OC` = uPA generation = 0%; DT40 TDP1 CPT = -11%; DT40 TDP1 no CPT = 22%; TDP1 inh = ·; miR-21 reporter = ·
# Record of `CCCCOc1ccc(C(=O)CCN2CCCCC2)cc1` = uPA generation = ?; DT40 TDP1 CPT = 8.2µM*; DT40 TDP1 no CPT = 6.5µM*; TDP1 inh = 5%; miR-21 reporter = 0%

# Gathered by group: the compounds so far with a Cl atom
SMILES,uPA generation,DT40 TDP1 CPT,DT40 TDP1 no CPT,TDP1 inh,miR-21 reporter
CCOC(=O)N/N=C\c1ccc(-c2cc(Cl)ccc2Cl)o1,-4%,?,-22%,-3%,-12%
Cc1c(Cl)cccc1NC(=O)Nc1ccc2snnc2c1,·,15µM*,18µM*,5%,?

# More records:
SMILES,uPA generation,DT40 TDP1 CPT,DT40 TDP1 no CPT,TDP1 inh,miR-21 reporter
CC(=O)Nc1cccc(NC(=O)Nc2cccc(Cl)c2C)c1,2%,-7%,-23%,-1%,-9%
COc1ccc(NC(=O)Nc2cc(C)ccc2F)cc1OC,3%,-2%,-13%,0%,-42%
CCCSc1ncnc2sc(C)c(C)c12,3%,-28%,-15%,3%,-23%
O=C(NC(=S)NCCC1=CCCCC1)c1ccccc1Br,3%,?,16µM*,0%,-18%
O=C(CCn1c(=O)c2ccccc2n(CC(=O)NCCC2=CCCCC2)c1=O)NCc1ccco1,0%,-23%,?,8%,-4%
S=C(NCCC1=CCCCC1)NCc1ccco1,-6%,16µM*,10µM*,0%,-24%
CN(C)S(=O)(=O)c1ccc(NC(=O)COc2ncnc3c2cnn3-c2ccccc2)cc1,6%,-3%,-25%,0%,3%
CCn1c(=O)n(CC)c2cc(S(N)(=O)=O)c(C)cc21,6%,2%,5%,0%,-6%
COCCn1c(SCc2nc3scc(-c4ccc(Cl)cc4)c3c(=O)[nH]2)nnc1-c1cccc(C)c1,-11%,?,?,3%,12%
O=C(CCCOC(=O)c1ccc(O)cc1O)c1ccc(Br)cc1,12%,?,23µM*,-8%[0.505 µM],·
Cn1c(CNC(=O)c2ccco2)nnc1SCC(=O)Nc1c(F)cc(F)cc1Br,·,-6%,-5%,0%,5%
Cc1ccc(S(=O)(=O)NCC(c2cccnc2)N2CCN(Cc3ccccc3)CC2)cc1 (stereo not drawn),1%,-25%,-27%,6%,0%
O=C(NCC(c1cccnc1)N1CCN(Cc2ccccc2)CC1)C(=O)Nc1ccc(Cl)cc1 (stereo not drawn),·,13µM*,7.3µM*,5%,-15%
O=C(NCC(c1cccnc1)N1CCOCC1)C(=O)Nc1ccc(F)cc1 (stereo not drawn),·,-1%,-13%,6%,29%
Cc1ccc(NC(=O)C(=O)NCC(c2cccnc2)N2CCN(Cc3ccccc3)CC2)cc1 (stereo not drawn),·,23µM*,18µM*,5%,-7%
COc1ccc(-c2cn(-c3ccccc3)c3[n+]2CCS3)cc1,-16%,2.3µM*,2.3µM*,5%,?
CC(C)(C)c1ccc(-c2cn(-c3ccc(Br)cc3)c3[n+]2CCCS3)cc1,-21%,0.16µM*,0.18µM*,5%,?
Fc1ccc(-n2cc(-c3ccccc3)[n+]3c2SCC3)cc1,-18%,-30%,?,8%,4%
CCCCn1cnc2c(SCc3ccc(Cl)cc3)nc(N)nc21,-1%,?,?,·,·
O=C1OC(c2ccc(F)cc2)=N/C1=C\c1ccc(Br)o1,5%,?,13µM*,3%,1%
CN1CCN(C(c2ccc(Br)cc2)c2cc(Cl)c3cccnc3c2O)CC1 (stereo not drawn),1%,16µM*,15µM*,10%,?
CN1CCN(C(c2cccnc2)c2ccc3cccnc3c2O)CC1 (stereo not drawn),5%,?,16µM*,-4%,9%
C/C(CC(=O)Nc1cccc(C(F)(F)F)c1)=N\NC(=O)C1CCCCC1,-3%,?,-20%,0%,-4%

# From PubChem
